Measured values taken from publication PMC10959724 (2024).

B1: wildtype TBK1 (TANK-binding kinase 1), mCitrine-Protein A fusion [not stated] / optineurin, NanoLuc-tagged [not stated] (parent complex)
chain 1: MQSTSNHLWLLSDILGQGATANVFRGRHKKTGDLFAIKVFNNISFLRPVDVQMREFEVLKKLNHKNIVKLFAIEEETTTRHKVLIMEFCPCGSLYTVLEEPSNAYGLPESEFLIVLRDVVGGMNHLRENGIVHRDIKPGNIMRVIGEDGQSVYKLTDFGAARELEDDEQFVSLYGTEEYLHPDMYERAVLRKDHQKKYGATVDLWSIGVTFYHAATGSLPFRPFEGPRRNKEVMYKIITGKPSGAISGVQKAENGPIDWSGDMPVSCSLSRGLQVLLTPVLANILEADQEKCWGFDQFFAETSDILHRMVIHVFSLQQMTAHKIYIHSYNTATIFHELVYKQTKIISSNQELIYEGRRLVLEPGRLAQHFPKTTEENPIFVVSREPLNTIGLIYEKISLPKVHPRYDLDGDASMAKAITGVVCYACRIASTLLLYQELMRKGIRWLIELIKDDYNETVHKKTEVVITLDFCIRNIEKTVKVYEKLMKINLEAAELGEISDIHTKLLRLSSSQGTIETSLQDIDSRLSPGGSLADAWAHQEGTHPKDRNVEKLQVLLNCMTEIYYQFKKDKAERRLAYNEEQIHKFDKQKLYYHATKAMTHFTDECVKKYEAFLNKSEEWIRKMLHLRKQLLSLTNQCFDIEEEVSKYQEYTNELQETLPQKMFTASSGIKHTMTPIYPSSNTLVEMTLGMKKLKEEMEGVVKELAENNHILERFGSLTMDGGLRNVDCL
chain 2: MSHQPLSCLTEKEDSPSESTGNGPPHLAHPNLDTFTPEELLQQMKELLTENHQLKEAMKLNNQAMKGRFEELSAWTEKQKEERQFFEIQSKEAKERLMALSHENEKLKEELGKLKGKSERSSEDPTDDSRLPRAEAEQEKDQLRTQVVRLQAEKADLLGIVSELQLKLNSSGSSEDSFVEIRMAEGEAEGSVKEIKHSPGPTRTVSTGTALSKYRSRSADGAKNYFEHEELTVSQLLLCLREGNQKVERLEVALKEAKERVSDFEKKTSNRSEIETQTEGSTEKENDEEKGPETVGSEVEALNLQVTSLFKELQEAHTKLSEAELMKKRLQEKCQALERKNSAIPSELNEKQELVYTNKKLELQVESMLSEIKMEQAKTEDEKSKLTVLQMTHNKLLQEHNNALKTIEELTRKESEKVDRAVLKELSEKLELAEKALASKQLQMDEMKQTIAKQEEDLETMTILRAQMEVYCSDFHAERAAREKIHEEKEQLALQLAVLLKENDAFEDGGRQSLMEMQSRHGARTSDSDQQAYLVQRGAEDRDWRQQRNIPIHSCPKCGEVLPDIDTLQIHVMDCII

Variants of: B1
Assay: LuTHy-BRET; live HEK293 cells; parent: 1; read off a plot

Row | ratio to parent | Variant
1 | ~0.06 | chain 1 E696K
2 | ~0.99 | chain 1 R47H

Variants of: B1
Assay: LuTHy-BRET donor saturation assay; live HEK293 cells; read at Acceptor:Donor = 4 (highest point of the curve); parent: 0.066; read off a plot

Row | response | Variant
3 | ~0.012 | chain 1 E696K
